# Test results reported in PubChem BioAssay AID2662 (National Center for Advancing Translational Sciences (NCATS), 2010).
# Chains of the proteins cited; added tags and fusions are not shown.
# UniProt Q03164, whole entry: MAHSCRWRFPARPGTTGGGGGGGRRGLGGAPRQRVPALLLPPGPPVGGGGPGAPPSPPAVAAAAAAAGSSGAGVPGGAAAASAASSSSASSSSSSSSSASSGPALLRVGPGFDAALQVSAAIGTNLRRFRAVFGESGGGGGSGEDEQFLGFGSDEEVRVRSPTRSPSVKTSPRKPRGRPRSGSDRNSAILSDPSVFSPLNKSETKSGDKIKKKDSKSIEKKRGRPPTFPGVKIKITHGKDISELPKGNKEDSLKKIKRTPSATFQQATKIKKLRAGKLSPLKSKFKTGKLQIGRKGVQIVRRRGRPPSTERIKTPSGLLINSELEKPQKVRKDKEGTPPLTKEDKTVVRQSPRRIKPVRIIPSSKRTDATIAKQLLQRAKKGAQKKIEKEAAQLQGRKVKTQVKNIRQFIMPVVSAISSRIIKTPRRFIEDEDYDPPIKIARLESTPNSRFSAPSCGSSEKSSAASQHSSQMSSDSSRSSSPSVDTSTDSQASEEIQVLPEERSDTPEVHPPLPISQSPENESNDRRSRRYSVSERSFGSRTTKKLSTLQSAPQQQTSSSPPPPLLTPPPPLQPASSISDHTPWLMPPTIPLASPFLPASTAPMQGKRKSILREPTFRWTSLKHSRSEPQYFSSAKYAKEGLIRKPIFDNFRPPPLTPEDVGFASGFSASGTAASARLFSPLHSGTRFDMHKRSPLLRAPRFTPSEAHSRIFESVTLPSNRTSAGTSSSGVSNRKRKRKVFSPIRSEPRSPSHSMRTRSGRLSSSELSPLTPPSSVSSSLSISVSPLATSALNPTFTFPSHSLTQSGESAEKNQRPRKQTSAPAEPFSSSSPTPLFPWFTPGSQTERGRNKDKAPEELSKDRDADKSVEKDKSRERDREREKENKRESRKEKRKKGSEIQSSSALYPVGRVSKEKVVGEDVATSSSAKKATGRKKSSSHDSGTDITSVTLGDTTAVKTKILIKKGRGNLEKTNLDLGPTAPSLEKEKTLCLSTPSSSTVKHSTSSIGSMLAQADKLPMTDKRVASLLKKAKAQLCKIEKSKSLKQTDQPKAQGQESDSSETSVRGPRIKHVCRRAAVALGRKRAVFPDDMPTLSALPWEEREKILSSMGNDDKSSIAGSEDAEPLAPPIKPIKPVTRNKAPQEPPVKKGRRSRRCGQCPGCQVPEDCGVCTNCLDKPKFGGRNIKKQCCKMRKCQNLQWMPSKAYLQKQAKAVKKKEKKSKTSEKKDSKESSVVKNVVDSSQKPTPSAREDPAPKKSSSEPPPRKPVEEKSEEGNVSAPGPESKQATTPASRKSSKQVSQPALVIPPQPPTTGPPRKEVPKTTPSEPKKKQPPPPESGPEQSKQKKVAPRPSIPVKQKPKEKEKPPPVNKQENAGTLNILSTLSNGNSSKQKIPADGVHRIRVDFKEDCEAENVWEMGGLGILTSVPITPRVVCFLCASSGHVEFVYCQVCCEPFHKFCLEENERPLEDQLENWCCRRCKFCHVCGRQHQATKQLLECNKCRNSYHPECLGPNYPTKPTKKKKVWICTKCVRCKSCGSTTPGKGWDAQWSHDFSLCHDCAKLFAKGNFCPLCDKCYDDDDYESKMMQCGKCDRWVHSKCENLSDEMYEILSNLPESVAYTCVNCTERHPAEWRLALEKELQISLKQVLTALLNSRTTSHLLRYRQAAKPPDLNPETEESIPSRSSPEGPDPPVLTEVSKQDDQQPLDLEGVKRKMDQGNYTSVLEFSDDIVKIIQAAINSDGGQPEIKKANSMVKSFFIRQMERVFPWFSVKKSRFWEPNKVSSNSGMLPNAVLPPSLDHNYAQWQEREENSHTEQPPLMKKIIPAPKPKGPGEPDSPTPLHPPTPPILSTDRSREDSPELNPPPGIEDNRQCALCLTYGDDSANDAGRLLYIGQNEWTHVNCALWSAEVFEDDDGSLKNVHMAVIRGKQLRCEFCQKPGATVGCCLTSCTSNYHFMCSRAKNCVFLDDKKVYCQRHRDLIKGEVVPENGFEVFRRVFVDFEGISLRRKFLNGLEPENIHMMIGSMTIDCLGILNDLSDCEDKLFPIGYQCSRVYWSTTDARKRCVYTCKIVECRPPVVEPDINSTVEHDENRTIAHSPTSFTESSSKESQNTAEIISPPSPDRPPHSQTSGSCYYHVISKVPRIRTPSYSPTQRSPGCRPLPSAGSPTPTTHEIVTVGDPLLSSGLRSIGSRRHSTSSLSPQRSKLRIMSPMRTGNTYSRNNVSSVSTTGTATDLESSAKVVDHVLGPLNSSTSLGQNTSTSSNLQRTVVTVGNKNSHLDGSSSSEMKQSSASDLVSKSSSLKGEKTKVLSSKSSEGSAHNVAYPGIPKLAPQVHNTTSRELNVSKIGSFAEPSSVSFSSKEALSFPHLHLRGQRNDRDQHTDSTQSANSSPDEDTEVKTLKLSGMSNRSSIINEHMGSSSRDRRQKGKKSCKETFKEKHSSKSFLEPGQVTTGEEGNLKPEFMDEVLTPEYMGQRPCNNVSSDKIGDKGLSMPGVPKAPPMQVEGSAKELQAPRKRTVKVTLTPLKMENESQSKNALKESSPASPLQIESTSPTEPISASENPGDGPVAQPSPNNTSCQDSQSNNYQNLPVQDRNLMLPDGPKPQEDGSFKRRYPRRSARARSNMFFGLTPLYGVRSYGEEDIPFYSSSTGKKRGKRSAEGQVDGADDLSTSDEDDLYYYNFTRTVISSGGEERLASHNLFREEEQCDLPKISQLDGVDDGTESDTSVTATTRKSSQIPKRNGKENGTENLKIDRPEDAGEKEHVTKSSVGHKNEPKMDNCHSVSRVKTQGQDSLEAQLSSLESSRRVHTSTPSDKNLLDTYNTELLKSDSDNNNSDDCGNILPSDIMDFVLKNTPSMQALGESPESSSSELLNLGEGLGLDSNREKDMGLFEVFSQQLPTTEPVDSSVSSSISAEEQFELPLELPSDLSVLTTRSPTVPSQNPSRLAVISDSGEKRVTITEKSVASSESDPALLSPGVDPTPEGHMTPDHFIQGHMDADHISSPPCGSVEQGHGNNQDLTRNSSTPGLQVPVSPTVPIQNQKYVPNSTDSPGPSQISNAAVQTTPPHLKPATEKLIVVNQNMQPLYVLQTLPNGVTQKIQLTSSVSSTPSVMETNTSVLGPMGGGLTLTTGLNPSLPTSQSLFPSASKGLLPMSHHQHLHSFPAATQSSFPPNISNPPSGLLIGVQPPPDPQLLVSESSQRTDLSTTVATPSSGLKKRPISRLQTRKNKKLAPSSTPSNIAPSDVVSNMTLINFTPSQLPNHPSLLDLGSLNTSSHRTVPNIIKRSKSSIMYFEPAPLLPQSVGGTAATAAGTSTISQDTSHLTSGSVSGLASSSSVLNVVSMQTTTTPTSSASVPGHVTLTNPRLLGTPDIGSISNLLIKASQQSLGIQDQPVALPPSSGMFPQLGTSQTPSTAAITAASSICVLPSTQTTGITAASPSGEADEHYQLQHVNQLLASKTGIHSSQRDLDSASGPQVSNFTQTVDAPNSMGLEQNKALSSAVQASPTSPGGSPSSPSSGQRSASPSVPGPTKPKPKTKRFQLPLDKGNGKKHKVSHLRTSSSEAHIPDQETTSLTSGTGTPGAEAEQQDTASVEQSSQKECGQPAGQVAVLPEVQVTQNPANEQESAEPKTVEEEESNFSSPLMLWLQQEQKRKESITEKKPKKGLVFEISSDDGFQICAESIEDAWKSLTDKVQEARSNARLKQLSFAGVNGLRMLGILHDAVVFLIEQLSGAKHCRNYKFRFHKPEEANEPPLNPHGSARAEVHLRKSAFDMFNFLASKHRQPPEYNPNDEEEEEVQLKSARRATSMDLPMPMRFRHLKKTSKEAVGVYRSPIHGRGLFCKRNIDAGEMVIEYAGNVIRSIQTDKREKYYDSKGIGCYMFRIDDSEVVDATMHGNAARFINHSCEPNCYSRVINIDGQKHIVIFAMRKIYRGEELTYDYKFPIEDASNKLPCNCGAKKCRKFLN
# Only a part is listed here, and it is no random draw. Active and inactive are the calls of the source. Calls come from the whole dose curve; as a rule, active = well fitted inhibition curve with a large enough effect in the polarisation, with a control signal flat (not every such curve was filed as active); inconclusive = small, poorly fitted or top-dose-only effect, or effect the other way, or a change in a side signal; inactive = no such curve, though single readings can be large or run the other way; the % refers to the polarisation.
# Biological target: Histone-lysine N-methyltransferase 2A (Homo sapiens) (UniProt Q03164)
# Assay: qHTS Fluorescence Polarization Assay for Inhibitors of MLL CXXC domain - DNA interaction
# Conditions: MLL-CXXC / FITC-HOXA9 DNA fluorescence polarization; at 115 µM (top of the series)
row,Structure (SMILES),"activity change, negative = inhibition"
1,CCC(=O)N(c1ccccc1)C1CCN(CCc2ccccc2)CC1,inactive: -1.28%
2,CN(CCCl)CCCl,inactive: 4.95%
